Laboratory results reported in article PMC6431625 (Frontiers in Endocrinology, 2019).

The chains behind the UniProt entries cited, without tags or fusion partners. Where a name states a change or a piece, a line headed by the entry shows the natural chain unless it says otherwise.
UniProt P43088: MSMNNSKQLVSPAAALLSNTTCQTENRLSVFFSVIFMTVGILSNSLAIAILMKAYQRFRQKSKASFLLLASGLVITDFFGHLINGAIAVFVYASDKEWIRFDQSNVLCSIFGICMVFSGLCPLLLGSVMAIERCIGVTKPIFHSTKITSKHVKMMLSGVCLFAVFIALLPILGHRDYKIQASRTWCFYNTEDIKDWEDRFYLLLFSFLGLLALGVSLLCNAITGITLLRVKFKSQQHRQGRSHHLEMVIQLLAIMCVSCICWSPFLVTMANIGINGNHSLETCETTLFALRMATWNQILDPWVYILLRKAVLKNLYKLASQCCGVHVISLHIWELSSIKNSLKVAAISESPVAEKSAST

Target: AT1R-Venus/FP-WT dimer (Homo sapiens, UniProt P30556+P43088)
Experiment: BRET β-arrestin 1/2-RlucII recruitment to the AT1R-Venus/FP-WT dimer
Settings: pretreatment 30 min, sucrose 450 mM, phenylarsine oxide 2.5 μM, concanavalin A 0.4 g/L

O=[As]c1ccccc1 (centres unmarked)
Effect of endocytosis inhibitor pretreatment on Ang II-induced β-arrestin 1/2-RlucII recruitment (Ang II 1 μM): diminished
Effect of endocytosis inhibitor pretreatment on PGF2α-induced β-arrestin 1/2-RlucII recruitment (PGF2α 1 μM): diminished
